In BigSolDB 2.1:

Cc1ccccc1S(N)(=O)=O
solubility (mole fraction)
Conditions	in acetone	in acetonitrile	in ethanol	in ethyl acetate	in isobutanol	in isopropanol	in methanol	in n-butanol	in n-propanol
289.15 K	–	0.0258	–	–	–	–	–	–	–
293.65 K	0.0973	–	0.0166	0.0336	0.0059	0.00915	0.0269	0.0083	0.0103
